{
  "source": "ChEMBL document CHEMBL1151472",
  "about": "“In vitro interactions between tacrolimus and azoles against Candida albicans determined by different methods” (2008)",
  "key": {"Candida albicans [1]": {"system": "Candida albicans", "experiment": "Antimicrobial activity against azole-susceptible Candida albicans isolate CA14 assessed as log reduction in colony count at 10 ug/ml co-treated with calcineurin signaling inhibitor tacrolimus after 48 hrs by time killing test", "assay_type": "functional"}, "Candida albicans [2]": {"system": "Candida albicans", "experiment": "Antimicrobial activity against azole-resistant Candida albicans isolate CA10 assessed as log reduction in colony count at 10 ug/ml co-treated with calcineurin signaling inhibitor tacrolimus after 48 hrs by time killing test", "assay_type": "functional"}},
  "data": [
    {"molecule": "OC(Cn1cncn1)(Cn1cncn1)c1ccc(F)cc1F", "note": "[FLUCONAZOLE]", "values": [
      {"measurement": "Activity", "setting": "Candida albicans [1]", "value": 1.98},
      {"measurement": "Activity", "setting": "Candida albicans [2]", "value": 2.03}
    ]}
  ]
}
